In test [1] the target is T1, Recombinant Human CD46 Protein (His Tag) (human, UniProt P15529 35-343).
T1 chain: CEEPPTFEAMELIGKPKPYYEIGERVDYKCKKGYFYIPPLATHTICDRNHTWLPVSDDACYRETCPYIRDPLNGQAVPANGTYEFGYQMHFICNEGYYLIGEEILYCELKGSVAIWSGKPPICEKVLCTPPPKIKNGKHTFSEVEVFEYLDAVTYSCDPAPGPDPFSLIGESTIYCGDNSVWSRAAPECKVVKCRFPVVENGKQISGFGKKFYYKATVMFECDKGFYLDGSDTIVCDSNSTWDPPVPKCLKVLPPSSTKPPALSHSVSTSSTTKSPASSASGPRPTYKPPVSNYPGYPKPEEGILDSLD
The test is described as follows: SPR. (In general: SPR reads the build-up and loss of mass on a sensor chip optically.)

Test [2] deals with T2, Recombinant Human CXADR Fc Chimera Protein (CAR) (human, UniProt P78310).
T2 chain: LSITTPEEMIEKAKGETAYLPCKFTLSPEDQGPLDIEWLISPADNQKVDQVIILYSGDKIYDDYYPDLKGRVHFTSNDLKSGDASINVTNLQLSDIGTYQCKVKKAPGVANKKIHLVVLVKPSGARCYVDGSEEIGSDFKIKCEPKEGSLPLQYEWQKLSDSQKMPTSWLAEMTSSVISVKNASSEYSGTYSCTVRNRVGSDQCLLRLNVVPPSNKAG
The test is described as follows: SPR.

B1: HAdV-D26 fiber-knob protein (domain or fragment)
chain: RRTLWTTPDTSPNCKMSTEKDSKLTLTLTKCGSQVLGNVSLLAVTGEYHQMTATTKKDVKISLLFDENGILLPSSSLSKDYWNYRSDDSIVSQKYNNAVPFMPNLTAYPKPSAQNAKNYSRTKIISNVYLGALTYQPVIITIAFNQETENGCAYSITFTFTWQKDYSAQQFDVTSFTFSYLTQE
In general, Kd refers to the concentration at which binding is half-saturated. By koff is commonly meant the rate constant with which the complex falls apart. Consider B1, for which, in test [1], the Kd was 50.8 µM. Also, the koff in test [2] came out at 0.0074 s⁻¹.
